Assay results reported in patent publication US11802128B2, “Azetidine and pyrrolidine PARP1 inhibitors and uses thereof” (Xinthera, Inc., priority 2021, dated 2023).

Protein sequences, listed by entry. Tags and fused reporters are not part of them.
UniProt P09874, whole entry: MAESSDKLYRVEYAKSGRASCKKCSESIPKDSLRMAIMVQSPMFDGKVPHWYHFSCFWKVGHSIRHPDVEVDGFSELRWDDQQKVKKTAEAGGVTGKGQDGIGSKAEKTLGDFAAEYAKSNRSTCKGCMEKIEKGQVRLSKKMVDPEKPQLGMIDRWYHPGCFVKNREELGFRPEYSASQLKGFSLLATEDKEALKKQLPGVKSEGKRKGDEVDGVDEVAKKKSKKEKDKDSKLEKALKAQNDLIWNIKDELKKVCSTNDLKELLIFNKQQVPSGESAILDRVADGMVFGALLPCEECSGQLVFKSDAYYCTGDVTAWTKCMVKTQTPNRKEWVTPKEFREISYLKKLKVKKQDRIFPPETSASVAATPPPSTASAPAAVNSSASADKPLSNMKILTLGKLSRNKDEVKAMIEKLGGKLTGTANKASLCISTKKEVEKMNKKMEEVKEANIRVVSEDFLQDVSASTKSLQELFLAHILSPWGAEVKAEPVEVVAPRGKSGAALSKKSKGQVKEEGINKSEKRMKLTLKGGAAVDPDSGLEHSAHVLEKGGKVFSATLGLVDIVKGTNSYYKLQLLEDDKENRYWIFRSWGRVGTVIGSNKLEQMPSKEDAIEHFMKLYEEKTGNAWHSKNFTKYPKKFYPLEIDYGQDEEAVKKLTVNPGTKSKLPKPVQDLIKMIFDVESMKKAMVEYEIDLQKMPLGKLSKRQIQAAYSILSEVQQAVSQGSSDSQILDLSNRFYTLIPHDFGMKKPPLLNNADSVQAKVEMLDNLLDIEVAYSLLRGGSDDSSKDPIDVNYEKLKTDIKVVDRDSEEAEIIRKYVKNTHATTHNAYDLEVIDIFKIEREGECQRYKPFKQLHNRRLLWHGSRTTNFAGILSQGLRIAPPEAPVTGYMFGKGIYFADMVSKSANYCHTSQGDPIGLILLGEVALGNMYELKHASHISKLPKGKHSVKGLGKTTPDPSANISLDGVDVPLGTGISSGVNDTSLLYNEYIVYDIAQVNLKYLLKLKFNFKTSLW
UniProt Q9UGN5, whole entry: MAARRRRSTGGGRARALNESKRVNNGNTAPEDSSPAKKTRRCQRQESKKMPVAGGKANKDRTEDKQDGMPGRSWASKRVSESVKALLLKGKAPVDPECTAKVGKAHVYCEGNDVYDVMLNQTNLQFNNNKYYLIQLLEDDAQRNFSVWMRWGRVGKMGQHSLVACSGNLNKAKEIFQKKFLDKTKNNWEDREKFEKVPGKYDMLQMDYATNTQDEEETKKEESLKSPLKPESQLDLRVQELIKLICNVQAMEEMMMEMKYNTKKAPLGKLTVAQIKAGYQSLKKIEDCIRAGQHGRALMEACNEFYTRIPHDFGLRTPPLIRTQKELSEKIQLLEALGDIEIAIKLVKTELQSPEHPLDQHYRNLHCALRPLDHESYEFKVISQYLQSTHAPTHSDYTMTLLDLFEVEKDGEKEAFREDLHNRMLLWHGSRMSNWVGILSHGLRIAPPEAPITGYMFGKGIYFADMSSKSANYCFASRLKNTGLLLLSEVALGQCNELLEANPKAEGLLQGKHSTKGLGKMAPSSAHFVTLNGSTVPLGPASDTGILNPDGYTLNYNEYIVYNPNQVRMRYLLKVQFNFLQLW

Columns and labels:
PARP1 = PARP1 (Homo sapiens (Human), UniProt P09874); assay: Biochemical fluorescent polarization (FP) assay, displacement of PARPi-FL; conditions: read-out: IC50 FP PARP1; 20 nM protein, 3 nM PARPi-FL, 4 h at room temperature
PARP2 = PARP2 (Homo sapiens (Human), UniProt Q9UGN5); assay: as above; conditions: read-out: IC50 FP PARP2; 20 nM protein, 3 nM PARPi-FL, 4 h at room temperature
[1] = system: MDA-MB-436 (mutated BRCA1) cells; assay: Cell growth inhibition assay (CellTiter-Glo cell viability, 7 days); conditions: read-out: EC50 MDA-MB-436, MDA-MB-436, 7 days
From the text: (§1) The objective of this study is to evaluate the effect of invention compounds on cell proliferation through the cell viability assay in DLD-1 BRCA2(−/−) and parental isogenic pair and MDA-MB-436 (mutated BRCA1) cell lines. The CellTiter-Glo (CTG) based cell viability assay is designed to determine the number of viable cells in the culture because of compound effect, by quantifying ATP, which indicates the presence of metabolically active cells.
(§2) DLD-1 BRCA2(−/−) and parental isogenic pair were cultured in RPMI 1640 supplemented with 10% fetal bovine serum (FBS), and MDA-MB-436 cells were cultured in DMEM supplemented with 10% FBS. Both are culture at 37° C. with 5% CO2. Invention compounds were distributed to the 384 well plate (Corning, 3764) using Echo acoustic liquid handler to form a 1:3 serially diluted final concentration with top dose of 10 or 30 μM. The cells were seeded into the plate in the density of 50 cells/well (DLD-1 parental), 200 cells/well (DLD-1 BRCA2−/−), or 500 cells/well (MDA-MB-436). After a short spun, the cells were cultured in a well moisturized incubator at 37° C. with 5% CO2 for 7 days without disturbance. The cell viability was measured by CellTiter Glo 2.0 assay kit (Promega, G9243), and growth inhibition rate was calculated and plotted against final compound concentration, and the data were fitted in Xfit to generate IC50.

DLD-1 BRCA2(−/−) cells = assay: as above; conditions: read-out: EC50 DLD-1 BRCA2 (—/—)
From the text: as §1, §2

Structure (SMILES): N#Cc1ccc(OC2CN(Cc3cnc4cc(C5CC5)c(=O)[nH]c4c3)C2)cn1
- IC50 (PARP1): 13 nM
- IC50 (PARP2): 13 µM
- EC50 [1]: 14 nM
- EC50 (DLD-1 BRCA2(−/−) cells): 63 nM
